Measurements taken from US9034877B2 (Wayne State University, priority 2009, dated 2015).

The chains behind the UniProt entries cited, without tags or fusion partners.
UniProt P19020, whole entry: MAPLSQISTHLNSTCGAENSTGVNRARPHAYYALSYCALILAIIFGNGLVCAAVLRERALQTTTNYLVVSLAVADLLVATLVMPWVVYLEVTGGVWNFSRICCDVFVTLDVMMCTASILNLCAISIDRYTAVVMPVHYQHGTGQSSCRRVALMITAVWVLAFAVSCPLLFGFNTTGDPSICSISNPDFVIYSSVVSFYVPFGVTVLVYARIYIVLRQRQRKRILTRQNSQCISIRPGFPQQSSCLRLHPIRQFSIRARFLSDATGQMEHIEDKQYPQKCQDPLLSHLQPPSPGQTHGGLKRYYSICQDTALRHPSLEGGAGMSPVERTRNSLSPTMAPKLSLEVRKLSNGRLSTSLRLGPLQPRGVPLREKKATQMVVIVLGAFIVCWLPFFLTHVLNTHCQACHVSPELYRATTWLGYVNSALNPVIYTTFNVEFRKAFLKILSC

Target: T1, D3 receptor (Rattus norvegicus, UniProt P19020)
T1 construct: expressed in transfected cells
Experiment: Inhibition of [3H]spiperone binding to cloned D3 receptors expressed in HEK-293 cells
Details: rat D3 in HEK-293 cells

Ki: 1.67 nM
Compound: CCCN(CCN1CCN(C(=O)c2ccc3[nH]ccc3c2)CC1)C1CCc2ccc(O)cc2C1 (stereo not shown) [Compound 40a, (4-{2-[(7-Hydroxy-1,2,3,4-tetrahydro-naphthalen-2-yl)-propyl-amino]-ethyl}-piperazin-1-yl)-(1H-indol-5-yl)-methanone]
